MITF TRPM1 HTS – increases MITF-driven TRPM1 promoter luciferase signal | SK-MEL-5 TRPM1-promoter luciferase, 24 h; % of positive control, neutral wells = 0 | activation, % at 12.5 µM | 300,000 compounds, 0.75% hits | AID 588334;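 active = mean activation of at least 80% with every replicate also reaching 80%; inconclusive = mean reaches 80% but some replicate falls short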;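 also: 0% = neutral control wells and 100% = parthenolide positive control wells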
Yeast UUG start – modulators of start codon recognition fidelity in yeast; S. cerevisiae UUG-firefly luciferase reporter, luminescence/redox ratio; AID 602363; 350,000 tested, 0.13% active; activity score, % at 18.7 µM;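 active = replicate mean at a twofold rise or more, about +100% in these data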;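 also: firefly luciferase made from a UUG start codon reports start codon fidelity; reporter light over untreated wells divided by growth signal over untreated wells; some hits fall short of that in this replicate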
miR122 inh – blocks miR-122 activity in Huh7 sensor cells | Huh7 miR-122 Renilla luciferase sensor, 48 h; neutral wells = 0, positive control = 100 | activation (reporter increase), % at 12.5 µM | 340,000 compounds, 0.3% hits | AID 602342;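 active = mean replicate activation score at least 90 and every replicate individually at or above 90; inconclusive = only one of the two criteria met; inactive = neither criterion met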;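 also: higher luciferase means less miR-122 activity so hits act as miR-122 inhibitors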
PGC1a acetyl inh – PGC1a acetylation modulation, inhibitor mode | U2OS PGC1a acetylation, AlphaScreen anti-acetyl-lysine; with virally co-expressed GCN5 acetyltransferase | inhibition, % at 15.6 µM | 350,000 compounds, 0.17% hits;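 active = every replicate shows inhibition of at least 40%; inconclusive = mean inhibition at least 40% but some replicate below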;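 also: 0% = neutral control wells and 100% = positive control wells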
MITF TRPM1 inh – inhibitors of MITF-driven TRPM1 promoter in melanoma cells; SK-MEL-5 TRPM1 promoter luciferase, 24 h; inhibition, % at 12.5 µM; AID 488899; 330,000 compounds, 0.83% hits;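 active = mean inhibition across replicates of 60% or more, whatever share of single replicates reaches that level; inconclusive = some that reach 60%, reason not given; inactive = mean inhibition across replicates below 60%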
Wnt act – activators of Wnt/beta-catenin signaling; Wnt/beta-catenin reporter cell assay, activator, plate reader; activation, % at 9.35 µM; 300,000 compounds, 1.2% hits; in the data active = activation above about 30%, passing the limit was not always enough; inconclusive = no clear call, values can overlap the other calls;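 also: 0% = neutral control wells and 100% = positive control wells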
Active calls of the source: *; ? = inconclusive; . = not tested or not shown; [ ] = remark or other dose. Rows were chosen to be rich in hits. Some 2.1% of all compounds tested hit in one or more screens of this group.

entry	Molecule	MITF TRPM1 HTS	Yeast UUG start	miR122 inh	PGC1a acetyl inh	MITF TRPM1 inh	Wnt act
1	C1CCC(C(CC2CCCCN2)C2CCCCC2)CC1 (stereo not given)	-80	7	-2	-15	81*	-2
2	CCN1[C@@H]2c3ccc(C4=CCCCC4)c(=O)n3C[C@H]1[C@H](CO)[C@H]2C(=O)N1CCc2ccccc2C1	.	17	-5[16.7 µM]	.	.	.
3	Cc1ccc(Oc2cnc3ccccc3n2)cc1	109*	-13	-6	.	-118	.
4	C[C@H](CO)N1C[C@H](C)[C@@H](CN(C)C(=O)Nc2cccc3ccccc23)Oc2ccc(NS(C)(=O)=O)cc2C1=O	.	.	-1[16.7 µM]	-2	.	.
5	CC(C)=CCc1c(O)ccc2c1OC(c1ccc(O)c(O)c1)CC2=O (stereo not given)	-69	-14	-3	-7	71*	1
6	CC(=O)Nc1ccc(C=C(C#N)c2ccc(C)cc2)cc1	.	-11	-1	-2	.	47*
7	CC(=O)Nc1ccc(/C=C(\C#N)C(N)=O)cc1	.	-18	-3	-7	-17	4
8	Cc1ccc(NC(=O)c2cc(-c3cc(Cl)ccc3O)n[nH]2)cc1C	1	-13	5	3	-3	4
9	Cc1cc(C)c(O)c(-c2cc(C(=O)Nc3cccnc3)[nH]n2)c1	35	.	.	-7	-33	22
10	Cc1cc(O)c(-c2cc(C(=O)Nc3cccnc3)[nH]n2)cc1C	138*	-13	-2	1	-135	40*
11	CCc1ccc(O)c(-c2cc(C(=O)Nc3cccnc3)[nH]n2)c1	109*	-14	0	7	-113	?
12	O=C(C[C@@H]1C=C[C@H](NC(=O)Nc2ccc(F)cc2)[C@@H](CO)O1)NCc1cccc(F)c1	.	0	.	-1	.	.
13	O=C(C[C@@H]1C[C@@H]2c3cc(NC(=O)NC4CCCC4)ccc3O[C@@H]2[C@@H](CO)O1)NCc1ccc(-c2ccccc2)cc1	.	-14	1[16.7 µM]	3	.	.
14	CCCSc1nsc(NC(=O)c2cccnc2OCC)n1	-10	.	.	6	9	-1
15	CCCSc1nsc(NC(=O)CCC)n1	113*	-23	-2	-4	-110	20
16	CCCCCCSc1nsc(NC(C)=O)n1	67	-10	.	.	-65	.
17	CCCCSc1nsc(NC(C)=O)n1	91*	-10	3	.	-81	44*
18	CCN(CC)CCNC(=O)C1CCN(S(=O)(=O)c2c(C)noc2/C=C/c2ccccc2F)CC1	-78	6	-3	.	77*	-5
19	CC(C)(C)c1cccc(Cn2nnc3ccccc32)c1O	-5	1	.	.	4	0
20	Cc1cc(Cn2nnc3ccccc32)c(O)c(C(C)(C)C)c1	13	-9	134*	-22	-9	-2
21	CC(C)(C)NC(=O)CSc1nc(-c2ccc(F)cc2)cs1	71	.	2	-5	-70	38*
22	CCNC(=O)CSc1nc(-c2ccc(F)cc2)cs1	35	.	.	.	-33	17
23	CC(C)c1ccc(NC(=O)c2ccc(Br)o2)cc1	89*	-28	6	0	-91	.
24	O=C(Nc1cccc(C(=O)Nc2cccc(Br)c2)c1)c1ccccc1	31	-10	1	-9	-28	2
25	CC(C)c1ccc(NC(=O)c2cccc(Br)c2)cc1	71	-23	19	-8	-70	56*
26	Cc1ccc(S(=O)(=O)NC2CCCCC2)cc1	-3	9	60	-2	4	5
27	CSc1ccc(S(=O)(=O)NC2CCCCCC2)cc1	-11	-4	103*	-16	12	.
28	O=C(CCc1ccc(S(=O)(=O)NC2CCCCC2)cc1)N(Cc1ccccc1)Cc1ccccc1	-15	-3	99*	-18	16	.
29	COc1ccc(-c2ccc3c(c2)O[C@H](CN(C)C(=O)Nc2ccccc2F)[C@H](C)CN([C@@H](C)CO)S3(=O)=O)cc1	.	-13	-32[16.7 µM]	24	.	.
30	O=C(O)C[C@@H]1C[C@@H]2c3cc(NC(=O)c4ccc5c(c4)OCO5)ccc3O[C@@H]2[C@H](CO)O1	.	-31	3[16.7 µM]	0	.	.
31	O=C(/C=C/c1cccs1)c1ccc(NC(=O)c2cccc(Br)c2)cc1	33	-20	-2	48*	-26	-1
32	Cc1ccc(C(=O)Nc2ccc(C(=O)/C=C/c3cccs3)cc2)cc1	.	-1	6	-3	-33	9
33	CC(OC(=O)c1ccc(Br)o1)C(=O)Nc1ccc2c(c1)OCCO2 (stereo not given)	0	-24	.	.	0	5

4 compounds out of the list, ordered by molar mass, low to high:
entry	Molecule	MITF TRPM1 HTS	Yeast UUG start	miR122 inh	PGC1a acetyl inh	MITF TRPM1 inh	Wnt act
27	CSc1ccc(S(=O)(=O)NC2CCCCCC2)cc1	-11	-4	103*	-16	12	.
21	CC(C)(C)NC(=O)CSc1nc(-c2ccc(F)cc2)cs1	71	.	2	-5	-70	38*
33	CC(OC(=O)c1ccc(Br)o1)C(=O)Nc1ccc2c(c1)OCCO2 (stereo not given)	0	-24	.	.	0	5
31	O=C(/C=C/c1cccs1)c1ccc(NC(=O)c2cccc(Br)c2)cc1	33	-20	-2	48*	-26	-1

Compound activity from PubChem.
